The structures appear in SMILES notation.

The experiment has as its target T1, human microsomal prostaglandin E2 synthase (mPGES)-1 (Homo sapiens, UniProt O14684).
T1 sequence (O14684 1-152): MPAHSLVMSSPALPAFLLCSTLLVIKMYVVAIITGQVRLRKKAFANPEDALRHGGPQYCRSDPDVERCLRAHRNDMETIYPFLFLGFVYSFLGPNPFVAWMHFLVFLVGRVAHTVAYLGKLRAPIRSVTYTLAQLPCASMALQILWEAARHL
Description: mPGES-1 activity in microsomal preparations of IL-1β-treated A549 cells. The conditions noted are these: 10 µM; reference inhibitor.

In the case of `CC(C)c1ccc2c(c1)c(SC(C)(C)C)c(CC(C)(C)C(=O)O)n2Cc1ccc(Cl)cc1` [MK-886, reference compound], the “suppression of PGE2 formation” value is reported as 78.0 ± 2.5%.

These data come from paper PMC6148290, “Endogenous metabolites of vitamin E limit inflammation by targeting 5-lipoxygenase” (Nature Communications, 2018).
